Key:
[1] = biological target: T1, ETA receptor (Homo sapiens, UniProt P25101); experiment: ET-1 cumulative concentration response curves after antagonist preincubation, Schild plot pA2 (Example 3); assay type: cell-based; details: microvessels pre-treated with antagonist
T1 construct: Small peripheral resistance vessels (<400 μm) were carefully dissected from fresh biopsies using a light microscope; from tissue; host or cells: small peripheral resistance arteries from gluteal skin fat biopsies of angina patients

Amino acid sequences for entries named in this document (tags omitted). Residues count along the entry.
UniProt P25101, 21-427: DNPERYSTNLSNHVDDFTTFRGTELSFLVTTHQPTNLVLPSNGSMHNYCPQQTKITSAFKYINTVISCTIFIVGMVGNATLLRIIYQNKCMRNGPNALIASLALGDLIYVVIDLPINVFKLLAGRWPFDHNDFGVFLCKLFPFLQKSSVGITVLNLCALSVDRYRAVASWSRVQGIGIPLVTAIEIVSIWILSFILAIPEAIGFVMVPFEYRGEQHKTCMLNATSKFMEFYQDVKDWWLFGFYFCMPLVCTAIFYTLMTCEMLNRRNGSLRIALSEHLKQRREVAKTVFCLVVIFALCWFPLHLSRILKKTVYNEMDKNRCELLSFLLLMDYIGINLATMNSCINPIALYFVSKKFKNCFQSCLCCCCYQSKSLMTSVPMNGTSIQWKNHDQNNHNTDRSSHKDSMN

[2] = system: ETAR over ETBR; details: cited from earlier work
[3] = biological target: T1, ETA receptor; experiment: Paired ET-1 CCRCs with and without ETA antagonist, pKB by Schild regression (Examples 4 and 5); assay type: cell-based
Protocol: Ex vivo pharmacological assessment of peripheral vascular function was performed on patients who volunteered to undergo a gluteal skin fat biopsy within 4 weeks of the invasive coronary function assessment. The biopsy was obtained under sterile conditions using local anaesthesia with lidocaine (2%). Small peripheral resistance vessels (<400 μm) were carefully dissected from fresh biopsies using a light microscope. About 2 mm length vessels were mounted on 40-μm stainless steel wires for isometric myography in multi-channel myograph chambers (DMT, Denmark) filled with physiological saline solution. […] This vascular biology sub-study was an extension of our work in INOCA subjects that was previously published in this journal.^31A The detailed methods are described in the Supplementary material online, Appendix.
The peripheral vascular sensitivity to ET-1 (pEC50) and maximum vasoconstriction to ET-1 (Eumax) were determined. For the antagonist studies, the affinity (KB) of BQ123 was first determined in paired vessels from individuals and calculated using Schild regression. The pKB (−log10 KB) values were compared between each genotype as an indicator of whether or not patients of different genotypes are likely to respond equally well to an ETA antagonist used clinically.

In the case of COc1nc(C)cnc1NS(=O)(=O)c1cccnc1-c1ccc(-c2nnco2)cc1 [zibotentan, N-(3-Methoxy-5-methylpyrazin-2-yl)-2-[4-(1,3,4-oxadiazol-2-yl)phenyl]pyridine-3-sulfonamide], the “effect on the ET-1 constrictor response (shift of ET-1 CCRC)” value [1] is listed as “markedly reduced”, the “effect on the ET-1 constrictor response (shift of ET-1 CCRC)” value ([1]; listed as Zibotentan) is listed as “potently inhibits the ET-1 mediated vessel constriction” and the “selectivity for ETAR over ETBR (factor)” value [2] is listed as “around 10^7”. The Kb [3] was 28.8 nM.
